IC50 data for three molecules are collected here from patent US9828369B2, “Isoquinoline derivatives useful as inhibitors of diacylglyceride O-acyltransferase 2” (Merck Sharp & Dohme Corp., priority 2014, dated 2017).

Protein sequences, listed by entry. Tags and fused reporters are not part of them. Lines headed by an entry give the natural chain unless they say otherwise; changes in a name come on top.
UniProt Q96PD7: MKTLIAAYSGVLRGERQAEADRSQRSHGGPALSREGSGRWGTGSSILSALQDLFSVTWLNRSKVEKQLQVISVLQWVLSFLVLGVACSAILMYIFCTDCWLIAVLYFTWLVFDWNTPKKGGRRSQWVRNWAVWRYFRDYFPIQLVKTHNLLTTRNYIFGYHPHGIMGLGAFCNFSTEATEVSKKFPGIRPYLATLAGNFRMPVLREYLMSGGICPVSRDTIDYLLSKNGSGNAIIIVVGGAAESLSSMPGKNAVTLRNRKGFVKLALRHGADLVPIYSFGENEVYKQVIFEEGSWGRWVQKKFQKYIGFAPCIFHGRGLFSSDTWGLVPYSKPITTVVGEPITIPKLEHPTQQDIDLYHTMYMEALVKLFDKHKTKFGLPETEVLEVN

In general, IC50 refers to the midpoint of a concentration-inhibition curve.

The target in the experiment is hDGAT2 (Homo sapiens (Human), UniProt Q96PD7). The experiment is described as follows: DGAT2 enzymatic activity assay (triolein formation, LC/MS/MS).

Each structure is given as a SMILES string. Read-outs that look alike come from different tables or passages of the source.

`COc1cccc(-c2ccc(CNC(=O)[C@@H](C)c3ccc(-c4ccccc4)c(F)c3)c3cnccc23)c1` (stereo in doubt) [Example 140, (R/S)-2-(2-fluoro-[1,1′-biphenyl]-4-yl)-N-((5-(3-methoxyphenyl)isoquinolin-8-yl)methyl)propanamide]: half-maximal inhibition (IC50) was put at 624 nM. Same read-out and setting: to `COc1cccc(-c2ccc(CNC(=O)[C@H](C)c3ccc(-c4ccccc4)c(F)c3)c3cnccc23)c1` (stereo in doubt) [Example 145, (R/S)-2-(2-fluoro-[1,1′-biphenyl]-4-yl)-N-((5-(3-methoxyphenyl)isoquinolin-8-yl)methyl)propanamide] belongs 319 nM. On to `COc1cccc(-c2ccc(CNC(=O)C(C)c3cc(C(F)(F)F)cc(C(F)(F)F)c3)c3cnccc23)c1` (stereo not drawn) [Example 147, 2-(3,5-bis(trifluoromethyl)phenyl)-N-((5-(3-methoxyphenyl)isoquinolin-8-yl)methyl)propanamide], for which the IC50 (read-out: IC50 values for inhibition of DGAT2, membrane prep of Sf-9 cells expressing hDGAT2, 25 μM diolein, 10 μM oleoyl-CoA, room temperature, triolein by LC/MS/MS) was determined as 1190 nM.
